Target: WIZ protein (HiBit-WIZ fusion protein) (Homo sapiens, UniProt O95785+Q96SW2)
Assay: Quantification of WIZ protein levels in HiBit tag fusion protein assay (WIZ HiBit assay in 293T cells)
Format: cell-based
Details: for % degradation of WIZ (100 − Amax): at 25 uM; for % degradation of WIZ (100 − Amax) / WIZ Amax: 293T cells; for WIZ Amax: DMSO-normalized, curve-fitted percentage of WIZ-HiBit remaining at 25 uM; for AC50: read-out: WIZ AC50, WIZ HiBit assay in 293T cells, 10-point, 5-fold dose response, highest concentration 25 μM, about 18 hours

Chains of the proteins cited; added tags and fusions are not shown.
UniProt O95785, whole entry: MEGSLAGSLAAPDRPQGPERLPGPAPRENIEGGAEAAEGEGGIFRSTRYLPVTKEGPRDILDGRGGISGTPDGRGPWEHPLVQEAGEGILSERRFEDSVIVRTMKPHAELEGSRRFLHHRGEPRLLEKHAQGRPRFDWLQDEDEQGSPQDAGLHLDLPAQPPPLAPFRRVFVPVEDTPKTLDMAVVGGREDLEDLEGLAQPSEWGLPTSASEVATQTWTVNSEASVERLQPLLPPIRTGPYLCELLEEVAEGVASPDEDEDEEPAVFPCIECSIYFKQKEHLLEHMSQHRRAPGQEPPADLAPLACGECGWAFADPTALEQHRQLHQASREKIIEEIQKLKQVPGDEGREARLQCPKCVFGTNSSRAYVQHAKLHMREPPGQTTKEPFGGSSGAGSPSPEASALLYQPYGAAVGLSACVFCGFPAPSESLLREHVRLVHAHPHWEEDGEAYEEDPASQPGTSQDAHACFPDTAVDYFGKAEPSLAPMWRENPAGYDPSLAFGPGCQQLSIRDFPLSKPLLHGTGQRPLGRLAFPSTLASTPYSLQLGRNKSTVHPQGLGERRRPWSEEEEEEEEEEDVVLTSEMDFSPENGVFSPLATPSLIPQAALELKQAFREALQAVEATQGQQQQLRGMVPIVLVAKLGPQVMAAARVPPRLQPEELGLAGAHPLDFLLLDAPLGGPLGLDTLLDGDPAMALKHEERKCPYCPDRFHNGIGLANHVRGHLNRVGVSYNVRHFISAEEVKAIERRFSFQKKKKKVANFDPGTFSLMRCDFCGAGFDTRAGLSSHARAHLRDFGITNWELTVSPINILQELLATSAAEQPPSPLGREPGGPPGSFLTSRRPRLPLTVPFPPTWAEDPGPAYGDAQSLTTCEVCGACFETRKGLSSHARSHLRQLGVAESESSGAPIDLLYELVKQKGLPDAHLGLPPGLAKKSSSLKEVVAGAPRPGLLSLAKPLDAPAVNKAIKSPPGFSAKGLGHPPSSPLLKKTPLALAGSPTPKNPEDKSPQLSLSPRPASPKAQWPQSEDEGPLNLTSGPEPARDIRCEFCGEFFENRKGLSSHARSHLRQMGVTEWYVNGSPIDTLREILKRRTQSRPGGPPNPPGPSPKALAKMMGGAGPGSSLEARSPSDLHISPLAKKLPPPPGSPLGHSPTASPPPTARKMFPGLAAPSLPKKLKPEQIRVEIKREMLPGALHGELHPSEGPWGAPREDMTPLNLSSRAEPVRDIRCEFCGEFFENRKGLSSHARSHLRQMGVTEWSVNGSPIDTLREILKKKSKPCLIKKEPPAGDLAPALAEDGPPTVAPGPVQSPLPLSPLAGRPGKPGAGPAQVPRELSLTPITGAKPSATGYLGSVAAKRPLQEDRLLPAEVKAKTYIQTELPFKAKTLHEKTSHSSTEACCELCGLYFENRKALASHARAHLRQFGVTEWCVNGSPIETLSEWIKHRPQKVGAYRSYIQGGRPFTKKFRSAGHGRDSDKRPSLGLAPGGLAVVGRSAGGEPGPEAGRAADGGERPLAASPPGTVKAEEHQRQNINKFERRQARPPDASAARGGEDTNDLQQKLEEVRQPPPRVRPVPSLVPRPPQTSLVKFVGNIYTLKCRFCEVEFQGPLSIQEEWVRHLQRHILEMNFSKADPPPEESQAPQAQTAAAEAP
UniProt Q96SW2, whole entry: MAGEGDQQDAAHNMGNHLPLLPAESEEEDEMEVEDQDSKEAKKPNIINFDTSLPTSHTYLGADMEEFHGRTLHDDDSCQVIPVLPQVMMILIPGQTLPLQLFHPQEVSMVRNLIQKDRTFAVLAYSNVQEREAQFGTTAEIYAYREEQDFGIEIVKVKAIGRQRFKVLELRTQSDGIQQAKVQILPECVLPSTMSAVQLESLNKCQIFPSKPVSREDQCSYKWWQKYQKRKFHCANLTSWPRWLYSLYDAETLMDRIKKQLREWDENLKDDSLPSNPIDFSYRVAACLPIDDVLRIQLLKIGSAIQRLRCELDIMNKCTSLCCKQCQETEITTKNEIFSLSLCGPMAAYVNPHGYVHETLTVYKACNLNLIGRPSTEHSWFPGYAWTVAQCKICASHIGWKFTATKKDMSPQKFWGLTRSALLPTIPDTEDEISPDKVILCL
UniProt Q16531, whole entry partner: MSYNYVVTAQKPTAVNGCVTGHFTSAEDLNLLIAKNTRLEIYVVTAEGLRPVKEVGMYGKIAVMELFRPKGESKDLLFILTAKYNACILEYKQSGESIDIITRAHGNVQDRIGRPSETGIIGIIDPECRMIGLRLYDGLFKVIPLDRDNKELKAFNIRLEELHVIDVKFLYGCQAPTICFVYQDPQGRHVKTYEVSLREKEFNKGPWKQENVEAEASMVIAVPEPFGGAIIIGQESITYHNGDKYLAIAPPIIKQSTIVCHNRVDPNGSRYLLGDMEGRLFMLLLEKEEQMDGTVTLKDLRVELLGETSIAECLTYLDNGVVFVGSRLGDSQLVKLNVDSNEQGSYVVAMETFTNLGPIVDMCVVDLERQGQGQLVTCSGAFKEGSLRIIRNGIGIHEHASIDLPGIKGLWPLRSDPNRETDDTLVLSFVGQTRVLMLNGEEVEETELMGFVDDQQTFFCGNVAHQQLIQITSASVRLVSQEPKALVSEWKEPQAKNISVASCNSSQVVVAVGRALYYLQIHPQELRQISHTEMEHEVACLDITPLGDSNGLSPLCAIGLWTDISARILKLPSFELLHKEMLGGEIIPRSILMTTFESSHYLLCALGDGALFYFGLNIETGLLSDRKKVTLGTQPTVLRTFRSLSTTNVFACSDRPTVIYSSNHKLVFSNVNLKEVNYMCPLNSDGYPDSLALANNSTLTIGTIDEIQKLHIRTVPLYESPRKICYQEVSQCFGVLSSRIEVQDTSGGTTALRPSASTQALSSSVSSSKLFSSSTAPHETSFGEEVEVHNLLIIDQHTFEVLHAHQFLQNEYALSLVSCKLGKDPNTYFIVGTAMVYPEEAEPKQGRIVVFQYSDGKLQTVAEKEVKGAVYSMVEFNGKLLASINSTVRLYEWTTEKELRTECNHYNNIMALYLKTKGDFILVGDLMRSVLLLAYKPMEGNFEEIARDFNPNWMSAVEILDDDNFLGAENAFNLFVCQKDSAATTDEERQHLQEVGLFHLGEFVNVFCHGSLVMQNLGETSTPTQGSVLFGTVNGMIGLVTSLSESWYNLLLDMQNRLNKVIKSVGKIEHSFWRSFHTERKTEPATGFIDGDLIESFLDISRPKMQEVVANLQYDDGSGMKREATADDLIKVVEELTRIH

## CC(C)S(=O)(=O)N1CC[C@@H](Cc2ccn3ncc(N4CCC(=O)NC4=O)c3c2)C[C@@H]1C
  % degradation of WIZ (100 − Amax): 82%
  WIZ Amax: 18%
  AC50: 3 nM

## C[C@H]1C[C@H](Cc2ccn3ncc(N4CCC(=O)NC4=O)c3c2)CCN1C(=O)NC1CCCC1
  % degradation of WIZ (100 − Amax): 77%
  WIZ Amax: 23%
  AC50: 10 nM

— patent US11787785B2 (NOVARTIS AG, priority 2021, dated 2023)
